Assay results as given in ChEMBL document CHEMBL1817572, “New, potent, selective, and short-acting peptidic V1a receptor agonists” (J Med Chem, 2011).

Chains of the proteins cited; added tags and fusions are not shown.
UniProt P37288, whole entry: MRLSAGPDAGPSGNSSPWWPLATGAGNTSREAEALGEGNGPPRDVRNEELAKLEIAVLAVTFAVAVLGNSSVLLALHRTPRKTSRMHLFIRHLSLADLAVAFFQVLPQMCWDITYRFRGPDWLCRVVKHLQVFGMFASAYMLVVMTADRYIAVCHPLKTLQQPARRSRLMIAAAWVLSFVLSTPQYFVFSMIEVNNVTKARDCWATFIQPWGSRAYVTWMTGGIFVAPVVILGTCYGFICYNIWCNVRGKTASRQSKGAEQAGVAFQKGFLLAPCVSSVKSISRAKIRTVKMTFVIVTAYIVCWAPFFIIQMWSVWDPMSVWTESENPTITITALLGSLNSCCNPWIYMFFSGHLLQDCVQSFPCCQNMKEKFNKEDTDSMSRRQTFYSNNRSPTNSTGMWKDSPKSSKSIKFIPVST

Experiments:
Vasopressin V1a receptor = Vasopressin V1a receptor (Homo sapiens, UniProt P37288); assay: Agonist activity at recombinant human vasopressin V1a receptor expressed in HEK293 cells by luciferase reporter gene assay; type: functional, cell-based
[1] = biological target: Vasopressin V1a/V2 (Homo sapiens) (UniProt P30518+P37288); assay: Selectivity ratio of EC50 for human vasopressin V2 receptor to EC50 for human vasopressin V1a receptor
Vasopressin V2 receptor = Vasopressin V2 receptor (Homo sapiens, UniProt P30518); assay: Agonist activity at recombinant human vasopressin V2 receptor expressed in HEK293 cells by luciferase reporter gene assay; type: functional, cell-based
Vasopressin V1b receptor = biological target: T1, Vasopressin V1b receptor (Homo sapiens, UniProt P47901); assay: Agonist activity at recombinant human vasopressin V1b receptor expressed in Flp-In-293 cells by luciferase reporter gene assay; type: functional, cell-based
T1 sequence (P47901 whole entry): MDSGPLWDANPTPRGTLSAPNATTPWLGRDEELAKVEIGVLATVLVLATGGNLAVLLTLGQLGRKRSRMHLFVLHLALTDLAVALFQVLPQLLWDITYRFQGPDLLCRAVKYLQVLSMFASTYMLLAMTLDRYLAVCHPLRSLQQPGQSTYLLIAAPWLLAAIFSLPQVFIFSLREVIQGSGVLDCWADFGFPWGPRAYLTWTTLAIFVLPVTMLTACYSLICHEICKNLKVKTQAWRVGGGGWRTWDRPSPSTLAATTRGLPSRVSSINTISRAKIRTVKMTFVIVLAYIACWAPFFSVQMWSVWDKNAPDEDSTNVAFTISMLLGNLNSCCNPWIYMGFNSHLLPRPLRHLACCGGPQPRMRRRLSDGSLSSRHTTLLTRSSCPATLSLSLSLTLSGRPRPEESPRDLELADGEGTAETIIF
How it was run: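 Reporter gene assays in HEK293 cells transiently cotransfected with V1a (human or rat) or human V2 receptor vector plus NFAT-luciferase (V1a) or CRE-luciferase (V2) reporter; V1b in Flp-In-293 stably expressing receptor, OT in CHO-K1 stably expressing receptor, both transiently transfected with NFAT-luciferase. Two days post-transfection, peptides added for 5 h at 37 °C, lysis with luciferin, luminescence read.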

Homo sapiens [2] = organism: Homo sapiens; assay: Selectivity ratio of EC50 for human vasopressin V1b receptor to EC50 for human vasopressin V1a receptor
Homo sapiens [3] = organism: Homo sapiens; assay: Selectivity ratio of EC50 for human oxytocin receptor to EC50 for human vasopressin V1a receptor
Oxytocin receptor = biological target: T2, Oxytocin receptor (Homo sapiens, UniProt P30559); assay: Agonist activity at human OT receptor expressed in CHO-K1 cells by luciferase reporter gene assay; type: functional, cell-based
T2 sequence (P30559 whole entry): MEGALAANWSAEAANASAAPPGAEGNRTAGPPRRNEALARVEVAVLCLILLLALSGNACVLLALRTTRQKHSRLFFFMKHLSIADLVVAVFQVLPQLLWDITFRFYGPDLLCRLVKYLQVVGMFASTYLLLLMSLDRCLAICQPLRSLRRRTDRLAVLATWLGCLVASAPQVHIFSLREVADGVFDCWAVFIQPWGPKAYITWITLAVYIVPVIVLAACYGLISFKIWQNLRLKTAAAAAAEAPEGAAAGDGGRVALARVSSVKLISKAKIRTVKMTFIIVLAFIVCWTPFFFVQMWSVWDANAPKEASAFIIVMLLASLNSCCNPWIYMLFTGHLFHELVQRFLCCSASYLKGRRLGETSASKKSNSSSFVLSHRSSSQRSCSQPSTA

| Structure (SMILES) | EC50 (Vasopressin V1a receptor) [µM] | Ratio EC50 [1] | EC50 (Vasopressin V2 receptor) [µM] | EC50 (Vasopressin V1b receptor) [µM] | Ratio EC50 (Homo sapiens [2]) | Ratio EC50 (Homo sapiens [3]) | EC50 (Oxytocin receptor; cho-k1, read-out: EC50) [µM] | EC50 (Oxytocin receptor; read-out: pEC50 (converted)) [µM] |
| --- | --- | --- | --- | --- | --- | --- | --- | --- |
| CC[C@H](C)[C@@H]1NC(=O)[C@H](CC(C)(C)C)NC(=O)[C@@H](N)CSSC[C@@H](C(=O)N2CCC[C@H]2C(=O)N[C@@H](CCN)C(=O)NCC(N)=O)NC(=O)[C@H](CC(N)=O)NC(=O)[C@H](CCC(N)=O)NC1=O | 0.011 | 42 | 0.47 | 0.044 | 4 | > 900 | > 10 | > 10 |
| CC[C@H](C)[C@@H]1NC(=O)[C@H](CC(C)C)NC(=O)[C@@H](N)CSSC[C@@H](C(=O)N2CCC[C@H]2C(=O)N[C@@H](CCN)C(=O)NCC(N)=O)NC(=O)[C@H](CC(N)=O)NC(=O)[C@H](CCC(N)=O)NC1=O | 0.013 | 92 | 1.2 | 0.25 | 19 | > 760 | > 10 | > 10 |
